scFv variants of Ab-14 (heavy chain) against a SARS-CoV-2 spike peptide

Binding partner: SARS-CoV-2 spike HR2 peptide, sequence PDVDLGDISGINAS.

Parent: Ab-14, a human scFv built as VH, a (GGGGS)3 linker, VL. Only the CDRs of the heavy chain vary.
VH: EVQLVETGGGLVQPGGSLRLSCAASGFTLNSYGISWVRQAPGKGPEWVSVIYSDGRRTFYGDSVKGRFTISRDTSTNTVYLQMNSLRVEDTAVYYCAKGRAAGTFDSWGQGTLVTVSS
VL: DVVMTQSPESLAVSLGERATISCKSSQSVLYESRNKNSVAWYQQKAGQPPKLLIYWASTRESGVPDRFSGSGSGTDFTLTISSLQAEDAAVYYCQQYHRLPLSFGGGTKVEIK

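The starting antibody came from a phage panning campaign against this peptide. Library AAYL49 holds single substitutions and randomly drawn double and triple substitutions in the CDRs. In AlphaSeq, yeast of one mating type display the scFv and yeast of the other type display the target. After mating in shaken culture at 30 °C for 16 h, diploids were selected and their barcode pairs sequenced. Read counts were normalised to the haploid input and turned into Kd by a linear fit to BCL2-family pairs of known affinity, for each replicate. Each pool was mated in three replicate cultures.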

Changes read parent residue, position, new residue, counted from the first residue of the VH shown. All variants listed here change S35 of the VH, counted from its first residue. Values are apparent Kd, the geometric mean of the replicates that gave a signal; lower means stronger binding. "nd" means that the variant was in the library but no mating with the target was seen in any replicate; the authors take this as a sign of poor binding, and no number exists. Background: pairings of library AAYL49 with three empty control strains gave a value in 15% of cases (median 11 µM, 5th percentile 680 nM). Values in that range, when seen in few replicates, are hard to tell from nonspecific mating.

S35E Y52A D106F: nd (0 of 3 replicates).
G33Q S35G R57P: nd (0 of 3 replicates).
S35T F59E G103I: 14 µM (1 of 3 replicates).
L29A S35C S53V: nd (0 of 3 replicates).
S35T R56L G99W: nd (0 of 3 replicates).
S35K G99Q S107I: nd (0 of 3 replicates).
T28Q S35H V64D: nd (0 of 3 replicates).
I34E S35F: nd (0 of 3 replicates).
S35Y K65F: 5.7 µM (1 of 3 replicates).
S31F S35V T58N: 2.1 µM (1 of 3 replicates).
S35I G61V: 17 µM (2 of 3 replicates).
S35A T104P: nd (0 of 3 replicates).
S35Q V64S G103K: 94 µM (1 of 3 replicates).
G33Q S35W G99C: 17 µM (1 of 3 replicates).
Y32E S35V F59R: 20 µM (2 of 3 replicates).
S35V I51V R100T: nd (0 of 3 replicates).
S35L G61F S63K: nd (0 of 3 replicates).
S35F: nd (0 of 3 replicates).
S35H Y52K S107D: nd (0 of 3 replicates).
S35M T58D D106V: 87 µM (2 of 3 replicates).
S35Y Y52C G55K: nd (0 of 3 replicates).
S35T Y52G Y60N: 2.9 µM (1 of 3 replicates).
S35Y S53T D106A: 1.2 µM (1 of 3 replicates).
Y32Q I34W S35P: nd (0 of 3 replicates).
S35Q I51S K65W: nd (0 of 3 replicates).
S35W Y52T A102V: 170 µM (1 of 3 replicates).
S31M S35V: nd (0 of 3 replicates).
S35D S53R T104K: 1.1 µM (1 of 3 replicates).
N30E S35Q G55M: nd (0 of 3 replicates).
S35Y D106K: 13 µM (1 of 3 replicates).
S31R S35W: nd (0 of 3 replicates).
I34V S35R V50S: 89 µM (2 of 3 replicates).
S35W R57Y T104H: nd (0 of 3 replicates).
T28A S35D T58I: nd (0 of 3 replicates).
S35A D54A G99V: nd (0 of 3 replicates).
N30Q S35W G103F: 84 µM (3 of 3 replicates).
L29P S31H S35A: 9.2 µM (1 of 3 replicates).
N30G S35V D54V: nd (0 of 3 replicates).
S35W V50W G99K: 3.0 mM (1 of 3 replicates).
S35W S53R G55V: 23 µM (1 of 3 replicates).
S31H S35F K65N: nd (0 of 3 replicates).
S35Y D106F: 18 µM (1 of 3 replicates).
L29V N30E S35T: nd (0 of 3 replicates).
S35D G55S V64Y: 11 µM (1 of 3 replicates).
S35C T104M: nd (0 of 3 replicates).
S35I A101T: 100 µM (1 of 3 replicates).
S35E Y60C S107N: nd (0 of 3 replicates).
S35W R100C A101E: nd (0 of 3 replicates).
S35P I51V R57D: nd (0 of 3 replicates).
L29Y Y32G S35F: 38 µM (1 of 3 replicates).
S31T S35M S53K: 140 µM (1 of 3 replicates).
F27D S31H S35P: 25 µM (2 of 3 replicates).

7 of these entries, quoted again:

For S35Y K65F, the assay gave 5.7 µM (1 of 3 replicates).
For F27D S31H S35P, the assay gave 25 µM (2 of 3 replicates).
For L29A S35C S53V, the assay gave nd (0 of 3 replicates).
For L29V N30E S35T, the assay gave nd (0 of 3 replicates).
For S35K G99Q S107I, the assay gave nd (0 of 3 replicates).
For S31H S35F K65N, the assay gave nd (0 of 3 replicates).
For S35V I51V R100T, the assay gave nd (0 of 3 replicates).

The measurements come from Engelhart et al. 2022 (doi:10.1038/s41597-022-01779-4) through the FLAb antibody collection.